# Test: Effect of various excipients on silymarin solubility
# Format: physicochemical
# Method: The effect of various excipients on the silymarin solubility was measured. […] Mixtures were centrifuged at 16,000× g for 10 min and supernatants filtered through a membrane filter (pore size; 0.22 μm). Filtrates were diluted in 85% acetonitrile and silybin concentrations analyzed using a liquid chromatography-tandem mass spectrometry (LC-MS/MS) system.
substance,measurement,value
vitamin E-D-α-tocopheryl polyethylene glycol 1000 succinate [TPGS],increase in silymarin solubility in the presence of excipient,highest increase
